# Values of other authors in patent publication US6160011A (priority 1998, dated 2000).
# Conditions: area under the plasma concentration-time profile, R- vs S-enantiomer, healthy male volunteers, single oral dose of racemate; cited from earlier work
smiles,measurement,value
"C[C@](O)(CS(=O)(=O)c1ccc(F)cc1)C(=O)Nc1ccc(C#N)c(C(F)(F)F)c1 [R-Bicalutamide, reference compound]",AUC relative to S-Casodex,130 fold
